PubChem BioAssay AID588850 (Sanford-Burnham Center for Chemical Genomics, 2011)
Only a part is listed here, and it is no random draw. Calls of active or inactive are those of the source.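 Rule for the calls: active = at least 50% inhibition at 5 µM, scaled per plate between neutral and stimulator controls; inactive = the rest.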

Assay: inhibitors of PAF-induced NF-kB signaling, primary screen, cell-based, GFP fluorescence, uHTS (AID 588850);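 note: PAF is a Pseudomonas aeruginosa culture filtrate used as stimulus; plate controls were PAF-stimulated DMSO wells for no effect and unstimulated DMSO wells for full effect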
Conditions: KKLEB NF-kB-GFP reporter, GFP fluorescence overnight, at 5 µM, stronger effect = higher value

SMILES | inhibition
CC(C)(C)C(=O)NC(Sc1ncccn1)C(Cl)(Cl)Cl (stereo not given) | inactive: -16.6%
O=P1(N(CCCl)CCCl)NCCC(C(F)(F)F)O1 (stereo not given) | inactive: 14.2%
Clc1n[nH]nc1-c1nn[nH][15n]1 | inactive: -5.8%
CCOP(=O)(Nc1ccc(C)cn1)OCC | inactive: 8.8%
CN(CCCl)Cc1cc(Cl)c(NC2=NCCN2)c(Cl)c1 | inactive: -8.5%
CCOP(=O)(NC(=NC(C)c1ccccc1)NC(C)c1ccccc1)OCC (stereo not given) | inactive: 2.6%
O=P1(Nc2ccccn2)COc2ccccc2OC1 | inactive: 5%
CCC1=CC2Cc3nc4ccc(Cl)cc4c(N)c3C(C1)C2 (stereo not given) | inactive: 30.8%
CC1(CBr)Cn2c(nc3ccccc3c2=O)S1 (stereo not given) | inactive: 6.3%
CC(C)/C=N\N=C(\N)N[N+](=O)[O-] | inactive: 1.4%
CN(C(=O)Cc1ccc(Cl)c(Cl)c1)[C@@H]1CCCC[C@H]1N1CCCC1 | inactive: 6.8%
COc1ccccc1CNC(=O)COC(=O)C(O)(c1ccccc1)c1ccccc1 | inactive: 14.8%
CCCC1OP(=O)(Nc2ccccc2)OCC1CC (stereo not given) | inactive: -4.8%
O=C(/C=C/c1ccccc1)OC1CN2CCC1CC2 (stereo not given) | inactive: 7.8%
CN(C)C1(CNC(=O)c2ccc(S(C)(=O)=O)cc2)CCCCC1 | inactive: -0.5%
CC1CCC(C(C)C)C(OP(=O)(Nc2ccccn2)c2ccccc2)C1 (stereo not given) | inactive: 7.4%
Cc1ccc(C(=O)OC2CN3CCC2CC3)cc1 (stereo not given) | inactive: -3.1%
Cc1nn(-c2ccccc2)c2c1P(=O)(N1CCOCC1)N(C)C(c1ccccc1)=N2 (stereo not given) | inactive: 11.2%
O=[As](O)(c1cccs1)c1cccs1 | inactive: -25.6%
Cc1ccc(OCC(=O)OC2CN3CCC2CC3)cc1 (stereo not given) | inactive: -3.6%
O=P1(Nc2ccc(Br)cn2)COc2ccccc2OC1 | inactive: -17.9%
NS(=O)(=O)c1cccc(NC(=O)COC(=O)C(O)(c2ccccc2)c2ccccc2)c1 | inactive: 13.5%

SMILES | inhibition
Nc1cccc([As](=O)(O)c2ccccc2)c1 | inactive: 2.3%
O=P1(Nc2ncccn2)COc2ccccc2OC1 | inactive: 14.3%
Cc1ccc(S(=O)(=O)N(CCCN)CCCc2c(C)nc(N)[nH]c2=O)cc1 | inactive: -17.2%
Nc1ccccc1[As](=O)(O)c1ccccc1 | inactive: 13.8%
O=C(O)COc1ccc([As](=O)(O)O)cc1[N+](=O)[O-] | inactive: -1.2%
CS(=O)(=O)c1cc([N+](=O)[O-])c2no[n+]([O-])c2c1 | inactive: -22.2%
O=P(Nc1nccs1)(Oc1ccccc1)Oc1ccccc1 | inactive: 5%
O=P(Nc1nccs1)(c1ccccc1)c1nc2ccccc2s1 (stereo not given) | inactive: 7.5%
CCOP1(=S)c2c(C)nn(CCC#N)c2N=C(c2ccccc2F)N1C (stereo not given) | inactive: 15.5%
CN(C(=O)Cc1ccc(Cl)c(Cl)c1)[C@H]1CC[C@@]2(CCCO2)C[C@@H]1N1CCCC1 | inactive: -1.7%
O=[N+]([O-])c1ccc2c(c1)nnn2O | inactive: -4.1%
CN(C)C(=O)c1cc([N+](=O)[O-])cc2c1-c1c(cc([N+](=O)[O-])cc1[N+](=O)[O-])C2=O | active: 52.7%
CN(C(=O)Cc1ccccc1)[C@@H]1CC[C@]2(CCCO2)C[C@H]1N1CCCC1 | inactive: 10.5%
CCOP1(=S)c2c(C)nn(CCC#N)c2N=C(c2ccc(F)cc2)N1C (stereo not given) | inactive: 24.9%
N#CCCN(C(=O)COC(=O)C(O)(c1ccccc1)c1ccccc1)c1ccc(F)cc1 | inactive: -0.2%
NC(=O)Nc1ccc([As](=O)(O)O)cc1 | inactive: -19.3%
Cc1cccc(OCC(=O)OC2CN3CCC2CC3)c1 (stereo not given) | inactive: 2.6%
O=[As](O)(c1cccc(O)c1)c1cccc(O)c1 | inactive: 5.3%
CS(=O)(=O)c1ccc(Cl)c(NC(=O)COC(=O)C(O)(c2ccccc2)c2ccccc2)c1 | inactive: -10.6%
O=[As](O)(O)c1cccnc1 | inactive: -0.9%
COc1cc(C(=O)NCC2(N3CCOCC3)CCCCC2)cc(Cl)c1OC(C)C | inactive: -17.6%
O=C(OC1CN2CCC1CC2)c1ccc(Cl)cc1 (stereo not given) | inactive: -7.1%

SMILES | inhibition
CCOP(=O)(Nc1cccc2ccccc12)OCC | inactive: -0.1%
COc1cc(C2NCCC3(OCCO3)C2(C)C)cc(OC)c1OC (stereo not given) | inactive: -1.1%
CCCOP(=S)(Nc1nc(N)cc(=O)[nH]1)OCCC | inactive: 8.7%
Nc1cccc2c([As](=O)(O)O)cccc12 | inactive: 5.4%
Cc1ccc(NCCc2c([N+](=O)[O-])cc([N+](=O)[O-])cc2[N+](=O)[O-])cc1 | inactive: -5.4%
COc1cc(I)ccc1[As](=O)(O)O | inactive: 3%
COc1ccc2nc(NP(=O)(c3ccccc3)c3ccccc3)sc2c1 | inactive: -32.1%
O=P1(N(CCCl)CCCl)Nc2ccccc2N1 | inactive: -21.2%
O=P1(N(CCCl)CCCl)OCCCN1CCCl (stereo not given) | inactive: -7.6%
Cc1cc(=O)[nH]c(N[N+](=O)[O-])n1 | inactive: 12.3%
O=C(OC1CN2CCC1CC2)C12CC3CC(CC(C3)C1)C2 (stereo not given) | inactive: 12.3%
Cc1c2c(nc3ccccc13)SC(C(Cl)Cl)C2 (stereo not given) | inactive: 8.4%
COc1ccc(N/C(=N/P(=O)(N2CCOCC2)N2CCOCC2)N2CCOCC2)cc1 | inactive: 6%
O=[N+]([O-])c1cc(Oc2ccc([N+](=O)[O-])cc2C(F)(F)F)cc([N+](=O)[O-])c1 | inactive: -14.8%
Cc1ccc2nc3c(c(C)c2c1)CC(C(Cl)Cl)S3 (stereo not given) | inactive: -1.9%
Cc1ccc(OP(=O)(Nc2ccc([N+](=O)[O-])cn2)Oc2ccc(C)cc2)cc1 | inactive: 12.5%
O=[N+]([O-])c1ccc(-c2cc([N+](=O)[O-])c(O)c([N+](=O)[O-])c2)cc1 | inactive: 6.5%
COc1cc(C(=O)NCC2(N3CCOCC3)CCCCC2)ccc1OCC(C)C | inactive: 17.9%
C[As](=O)(O)c1cccc(C(=O)O)c1 | inactive: 8.9%
O=[As](O)(c1ccc(O)cc1)c1ccccc1O | inactive: 3.5%
O=[N+]([O-])c1cc([N+](=O)[O-])c(-c2ccn[nH]2)s1 | inactive: 18.2%
